Values of other authors in patent US8299238B2, “Steroidogenesis modified cells and methods for screening for endocrine disrupting chemicals” (University of Saskatchewan, priority 2009, dated 2012).

Tested on: H295R cells
Settings: H295R cells (parental or unmodified); cited from earlier work

Human chorionic gonadotropin [Human chorionic gonadotropin (hcG)]
Effect type: estradiol (E2) production: No effect on T and E2 production in | Effect type: testosterone (T) production: No effect on T and E2 production in
